The values below come from ChEMBL document CHEMBL1149217, “3-trifluoromethyl-4-nitro-5-arylpyrazoles are novel K(ATP) channel agonists” (Bioorg Med Chem Lett, 2004).

Protein sequences, listed by entry. Tags and fused reporters are not part of them. Lines headed by an entry give the natural chain unless they say otherwise; changes in a name come on top.
UniProt Q14654: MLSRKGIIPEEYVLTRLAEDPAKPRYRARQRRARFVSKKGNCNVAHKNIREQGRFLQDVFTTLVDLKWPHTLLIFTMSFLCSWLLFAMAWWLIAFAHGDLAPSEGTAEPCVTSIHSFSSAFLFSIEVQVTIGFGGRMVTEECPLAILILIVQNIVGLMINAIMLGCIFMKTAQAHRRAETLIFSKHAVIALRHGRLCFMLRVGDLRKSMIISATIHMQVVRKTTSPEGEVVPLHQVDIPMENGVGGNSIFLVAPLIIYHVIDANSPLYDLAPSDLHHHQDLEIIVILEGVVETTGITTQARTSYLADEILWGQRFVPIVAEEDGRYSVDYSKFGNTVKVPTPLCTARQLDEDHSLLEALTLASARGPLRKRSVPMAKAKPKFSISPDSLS
UniProt Q09428: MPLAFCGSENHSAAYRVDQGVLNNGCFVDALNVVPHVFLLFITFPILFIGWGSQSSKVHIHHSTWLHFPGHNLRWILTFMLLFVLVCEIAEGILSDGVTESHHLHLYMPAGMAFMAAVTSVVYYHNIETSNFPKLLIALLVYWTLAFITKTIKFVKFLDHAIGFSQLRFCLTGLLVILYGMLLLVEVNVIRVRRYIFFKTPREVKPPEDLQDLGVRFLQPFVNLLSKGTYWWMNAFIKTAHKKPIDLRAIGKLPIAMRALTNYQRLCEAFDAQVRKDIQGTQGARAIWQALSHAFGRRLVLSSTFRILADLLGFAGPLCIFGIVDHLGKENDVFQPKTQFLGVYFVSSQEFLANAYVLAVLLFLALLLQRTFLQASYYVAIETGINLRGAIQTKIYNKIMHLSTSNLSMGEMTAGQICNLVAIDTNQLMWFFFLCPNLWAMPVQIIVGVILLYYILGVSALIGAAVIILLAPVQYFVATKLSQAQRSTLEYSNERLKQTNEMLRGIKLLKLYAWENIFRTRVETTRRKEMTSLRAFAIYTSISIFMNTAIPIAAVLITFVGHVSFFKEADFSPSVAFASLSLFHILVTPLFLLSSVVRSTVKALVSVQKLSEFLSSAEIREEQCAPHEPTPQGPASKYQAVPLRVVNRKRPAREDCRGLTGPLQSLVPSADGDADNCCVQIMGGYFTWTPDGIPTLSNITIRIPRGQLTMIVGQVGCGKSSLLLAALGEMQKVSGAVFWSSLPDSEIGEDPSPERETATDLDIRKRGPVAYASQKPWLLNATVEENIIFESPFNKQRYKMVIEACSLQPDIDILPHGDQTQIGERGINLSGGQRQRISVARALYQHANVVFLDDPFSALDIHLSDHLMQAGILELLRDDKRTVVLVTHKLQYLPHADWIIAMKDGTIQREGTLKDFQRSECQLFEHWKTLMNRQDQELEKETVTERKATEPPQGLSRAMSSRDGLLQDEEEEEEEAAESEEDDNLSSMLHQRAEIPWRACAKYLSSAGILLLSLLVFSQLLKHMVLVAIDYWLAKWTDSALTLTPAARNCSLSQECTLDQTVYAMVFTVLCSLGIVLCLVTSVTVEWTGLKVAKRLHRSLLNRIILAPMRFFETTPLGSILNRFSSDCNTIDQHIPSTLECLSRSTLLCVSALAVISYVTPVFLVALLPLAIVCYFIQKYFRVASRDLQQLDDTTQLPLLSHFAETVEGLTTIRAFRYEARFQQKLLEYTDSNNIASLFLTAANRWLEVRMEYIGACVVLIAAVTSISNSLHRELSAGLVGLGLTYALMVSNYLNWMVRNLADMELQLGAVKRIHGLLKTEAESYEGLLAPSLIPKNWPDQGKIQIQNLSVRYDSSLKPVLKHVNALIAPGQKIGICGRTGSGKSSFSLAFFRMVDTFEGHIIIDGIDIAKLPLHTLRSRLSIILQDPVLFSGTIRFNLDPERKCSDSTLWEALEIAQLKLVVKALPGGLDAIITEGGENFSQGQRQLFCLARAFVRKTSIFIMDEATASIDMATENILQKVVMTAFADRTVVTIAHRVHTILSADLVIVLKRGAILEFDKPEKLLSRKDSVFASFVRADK

The target of this assay is Sulfonylurea receptor 1, Kir6.2 (Homo sapiens, UniProt Q14654+Q09428). The assay can be described thus: […] of human KATP (SUR1/Kir6.2) channel expressed in Xenopus oocytes. Conditions: oocyte.

Take `O=[N+]([O-])c1ccc(-c2n[nH]c(C(F)(F)F)c2[N+](=O)[O-])c([N+](=O)[O-])c1`: it took 70 nM to reach a half-maximal effect (EC50).

Broadly, the EC50 is the midpoint of the concentration-response curve. A higher EC50 goes with a need for much substance.
